Measurements reported in patent US20240124398A1, “PHARMACEUTICALLY ACCEPTABLE SALTS OF PSILOCIN AND USES THEREOF” (priority 2021, published 2024).
“And” between values parts separate entries of the source, which are not always exact repeats. Identical values can stand only once. Counter-ions that a name gives are not always drawn.

Assay: Solubility of psilocin salts in saline
Details: for Solubility: single replicates; for Solubility (in words): comparison among forms or with freeform
[1] = Table 9, 25° C., 5 hours, maximum anticipated concentration 10 mg/mL free base
[2] = Table 10 (updated), hydrochloride

Molecule	Average Solubility [1] [µg/mL]	Solubility [1]	Average Solubility (Table 10 (updated)) [µg/mL]	Solubility (Table 10 (updated))	also measured
CN(C)CCc1c[nH]c2cccc(O)c12.O=S(=O)(O)c1cccc2c(S(=O)(=O)O)cccc12 [Psilocin 1,5-napthalenedisulfonate NAP Pattern 1]	7100	7000 µg/mL and 7100 µg/mL	7100	7000 µg/mL and 7100 µg/mL	–
Psilocin tartrate [TAR Pattern 1]	–	–	–	–	Solubility (in words): high solubility
Psilocin succinate [SUC Pattern 3]	–	–	>27000	–	Solubility (Table 10 (updated), listed as Psilocin succinate SUC Pattern 3): >28000 µg/mL and >25000 µg/mL; Solubility (in words): high solubility
CN(C)CCc1c[nH]c2cccc(O)c12 [Psilocin hydrochloride HCl Pattern 1, Psilocin hydrochloride]	–	–	–	–	Average Solubility [2]: Approx. 36 mg/mL; Solubility [2]: 36000 µg/mL
CN(C)CCc1c[nH]c2cccc(O)c12 [Psilocin free base, Psilocin]	–	740 µg/mL	760	780 µg/mL and 740 µg/mL	–
CN(C)CCc1c[nH]c2cccc(O)c12.O=C(O)c1ccccc1 [BEN Pattern 1, Psilocin benzoate]	5000	–	5000	–	Solubility (Table 9, 25° C., 5 hours, maximum anticipated concentration 10 mg/mL free base, listed as Psilocin benzoate BEN Pattern 1): 5000 µg/mL and 4900 µg/mL; Solubility (Table 10 (updated), listed as Psilocin benzoate BEN Pattern 1): 5000 µg/mL and 4900 µg/mL
CN(C)CCc1c[nH]c2cccc(O)c12.O=C(O)c1ccccc1O [Psilocin salicylate SAL Pattern 1, Psilocin salicylate]	5800	5500 µg/mL and 6000 µg/mL	5800	5500 µg/mL and 6000 µg/mL	–
